Source: PMC4580473

Amino acid sequences for entries named in this document (tags omitted). Residues count along the entry.
UniProt P33981, 510-857 limits assumed: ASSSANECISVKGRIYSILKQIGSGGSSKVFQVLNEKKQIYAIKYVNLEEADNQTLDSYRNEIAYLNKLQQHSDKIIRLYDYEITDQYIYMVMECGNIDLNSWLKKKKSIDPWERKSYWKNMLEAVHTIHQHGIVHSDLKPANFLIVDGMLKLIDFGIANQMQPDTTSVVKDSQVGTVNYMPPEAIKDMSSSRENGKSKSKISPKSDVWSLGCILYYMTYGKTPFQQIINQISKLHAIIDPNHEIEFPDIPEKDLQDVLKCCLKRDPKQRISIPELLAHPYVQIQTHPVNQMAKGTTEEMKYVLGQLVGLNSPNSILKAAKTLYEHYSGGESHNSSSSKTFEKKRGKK
UniProt Q8TD08, whole entry: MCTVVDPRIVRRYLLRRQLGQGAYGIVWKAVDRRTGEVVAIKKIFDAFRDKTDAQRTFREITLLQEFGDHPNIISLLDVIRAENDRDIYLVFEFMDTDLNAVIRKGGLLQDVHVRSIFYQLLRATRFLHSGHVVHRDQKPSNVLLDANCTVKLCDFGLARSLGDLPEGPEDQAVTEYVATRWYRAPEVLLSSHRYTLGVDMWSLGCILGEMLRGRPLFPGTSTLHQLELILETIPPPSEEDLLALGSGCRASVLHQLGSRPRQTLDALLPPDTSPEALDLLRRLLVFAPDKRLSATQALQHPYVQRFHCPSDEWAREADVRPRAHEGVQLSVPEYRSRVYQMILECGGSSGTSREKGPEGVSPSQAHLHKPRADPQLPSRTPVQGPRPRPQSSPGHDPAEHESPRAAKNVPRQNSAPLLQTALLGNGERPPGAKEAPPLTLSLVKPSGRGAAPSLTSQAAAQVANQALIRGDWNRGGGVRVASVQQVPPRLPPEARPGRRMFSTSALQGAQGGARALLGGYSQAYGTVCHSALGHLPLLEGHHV
UniProt P45983, whole entry: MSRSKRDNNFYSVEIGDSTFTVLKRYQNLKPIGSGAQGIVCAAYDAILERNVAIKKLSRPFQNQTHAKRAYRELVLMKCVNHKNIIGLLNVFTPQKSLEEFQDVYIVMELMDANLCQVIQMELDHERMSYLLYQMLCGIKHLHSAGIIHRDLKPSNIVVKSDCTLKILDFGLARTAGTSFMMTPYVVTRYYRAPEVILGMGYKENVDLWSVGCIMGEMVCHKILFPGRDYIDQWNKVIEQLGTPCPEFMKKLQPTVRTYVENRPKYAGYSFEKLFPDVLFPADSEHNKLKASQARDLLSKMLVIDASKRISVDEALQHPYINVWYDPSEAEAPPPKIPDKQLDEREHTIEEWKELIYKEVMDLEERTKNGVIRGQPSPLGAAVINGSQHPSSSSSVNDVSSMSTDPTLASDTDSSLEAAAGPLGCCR
UniProt O60285, whole entry: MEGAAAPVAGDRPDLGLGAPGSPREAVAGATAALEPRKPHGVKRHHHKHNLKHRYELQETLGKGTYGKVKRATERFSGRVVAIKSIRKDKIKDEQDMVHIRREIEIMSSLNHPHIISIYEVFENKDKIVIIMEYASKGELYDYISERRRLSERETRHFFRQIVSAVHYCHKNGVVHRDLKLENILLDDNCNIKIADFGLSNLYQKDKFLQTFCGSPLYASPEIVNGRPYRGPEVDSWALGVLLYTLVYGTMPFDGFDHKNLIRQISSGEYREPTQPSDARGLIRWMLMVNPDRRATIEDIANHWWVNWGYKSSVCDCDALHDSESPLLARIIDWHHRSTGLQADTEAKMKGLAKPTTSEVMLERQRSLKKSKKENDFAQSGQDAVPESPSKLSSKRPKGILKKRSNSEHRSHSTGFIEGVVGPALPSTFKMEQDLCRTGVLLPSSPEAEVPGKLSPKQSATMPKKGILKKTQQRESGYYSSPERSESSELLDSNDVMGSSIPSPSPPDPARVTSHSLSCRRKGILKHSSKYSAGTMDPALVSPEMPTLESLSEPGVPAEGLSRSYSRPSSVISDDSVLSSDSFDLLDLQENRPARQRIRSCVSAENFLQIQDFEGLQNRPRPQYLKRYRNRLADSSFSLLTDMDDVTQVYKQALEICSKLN
UniProt O43318, whole entry: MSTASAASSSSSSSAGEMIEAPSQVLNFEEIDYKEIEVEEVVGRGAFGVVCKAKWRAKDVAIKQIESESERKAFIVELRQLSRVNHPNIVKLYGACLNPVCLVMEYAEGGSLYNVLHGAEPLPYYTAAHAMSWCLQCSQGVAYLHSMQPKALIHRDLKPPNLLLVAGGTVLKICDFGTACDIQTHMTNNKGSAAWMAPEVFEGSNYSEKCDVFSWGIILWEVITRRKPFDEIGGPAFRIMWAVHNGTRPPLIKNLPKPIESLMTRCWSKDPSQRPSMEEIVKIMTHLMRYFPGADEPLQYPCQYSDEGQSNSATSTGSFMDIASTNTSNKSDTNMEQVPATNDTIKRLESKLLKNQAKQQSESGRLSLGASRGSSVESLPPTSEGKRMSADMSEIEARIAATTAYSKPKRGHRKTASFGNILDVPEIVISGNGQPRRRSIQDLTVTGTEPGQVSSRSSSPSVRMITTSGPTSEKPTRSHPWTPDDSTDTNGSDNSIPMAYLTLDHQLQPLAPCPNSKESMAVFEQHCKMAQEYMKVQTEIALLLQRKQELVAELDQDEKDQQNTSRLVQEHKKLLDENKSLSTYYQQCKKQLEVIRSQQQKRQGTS

Legend:
Mps1 = Mps1 (Homo sapiens, UniProt P33981); assay: mobility shift kinase assay (Caliper LabChip3000), Morrison tight-binding fit
ERK7 = ERK7 (Homo sapiens, UniProt Q8TD08); assay: kinase panel, single concentration (% inhibition at […], Km ATP)
JNK2 = JNK2 (Homo sapiens, UniProt P45984); assay: kinase panel at […], then 10-point Caliper mobility-shift dose-response
JNK1 = JNK1 (Homo sapiens, UniProt P45983); assay: as above
NUAK1 = NUAK1 (Homo sapiens, UniProt O60285); assay: as above
TAK1 = TAK1 (Homo sapiens, UniProt O43318); assay: as above

Row | SMILES | Ki (Mps1) [nM] | % inhibition at 1000 nM (ERK7) [%] | IC50 (JNK2) [nM] | IC50 (JNK1) [nM] | IC50 (NUAK1) [nM] | IC50 (TAK1) [nM]
1 | Cc1nc(N2CCOCC2)ccc1Nc1nc(NC2CCOCC2)c2c(C#N)c[nH]c2n1 | 0.27 | 81 | 89 | 220 | 160 | 
2 | Cc1nc(N2CCOCC2)ccc1Nc1nc(NC(C)(C)CO)c2c(C#N)c[nH]c2n1 | 0.33 |  | 28 | 42 | 52 | 290
